“Also recorded” adds a separate entry of the source.
Columns and labels:
aSynL/total ratio [1] = assay: aSynL/total ratio in brain of MPTP-treated macaques (reanalysis of GEO GSE4550); assay type: in vivo, macaque; conditions: 0.2 mg/kg i.p. daily for 6 or 12 days vs saline
aSynL/total ratio [2] = assay: aSynL/total ratio in brain regions of MPTP-treated mice (reanalysis of GEO GSE7707); assay type: in vivo, mouse; conditions: 30 mg/kg i.p. daily for 5 days vs saline

SMILES | aSynL/total ratio (Affymetrix probesets 204466_s_at and 211546_x_at) (aSynL/total ratio [1]) | aSynL/total ratio (Affymetrix probesets 1418493_a_at and 1436853_a_t) (aSynL/total ratio [2])
CN1CC=C(c2ccccc2)CC1.Cl [MPTP hydrochloride] | increased | 
CN1CC=C(c2ccccc2)CC1 [MPTP, 1-methyl-4-phenyl-1,2,3,6-tetrahydropyridine] | Mitochondrial toxin increases aSynL: total ratio | increase; also recorded: Mitochondrial toxin increases aSynL: total ratio
